This passage reports viability increase results from PubChem BioAssay AID807 (SRMLSC, 2007).

This is a selection; strong and weak results do not stand in their true shares. The source made the active and inactive calls.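 Rule for the calls: active = viability increase at or above a cutoff of the median across tested compounds plus 3 SD (cut at about 8.5% in these data, passing the limit was not always enough); inconclusive = some gains above the cutoff, reason not given; inactive = the rest.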

The nature of the assay: doxorubicin toxicity protection in MRP-1 cells – H69AR cells, CellTiter-Glo, duplicate, MRP-1 activator project, pilot screen (AID 807).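 Note: compound pretreatment 18-22 h then 72 h combined with doxorubicin; 0% = doxorubicin alone and 100% = vehicle without doxorubicin.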 The conditions noted are these: H69AR viability with doxorubicin, CellTiter-Glo luminescence; at 10 µM; hits give high values. (Cellular ATP, detected with luciferase, serves as a proxy for viable cell number.)
Turning to `Fc1ccccc1NC1CCN(Cc2ccccc2)CC1`, the viability increase was inactive: -3.64%.
